Data: ChEMBL document CHEMBL1153372, “A selective matrix metalloprotease 12 inhibitor for potential treatment of chronic obstructive pulmonary disease (COPD): discovery of (S)-2-(8-(methoxycarbonylamino)dibenzo[b,d]furan-3-sulfonamido)-3-methylbutanoic acid (MMP408)” (J Med Chem, 2009)

biological target: Collagenase 3 (Homo sapiens, UniProt P45452); test: Inhibition of human recombinant MMP13 expressed in Escherichia coli

Question: With `CC(C)[C@H](NS(=O)(=O)c1ccc(-c2ccc(NC(=O)c3cc4ccccc4o3)cc2)cc1)C(=O)O` as the compound, how does the IC50 read?
Answer: 0.0013 µM

Question: `CC(C)[C@@H](NS(=O)(=O)c1ccc2oc3cc(NS(C)(=O)=O)ccc3c2c1)C(=O)O` was tested. Which IC50 did it give?
Answer: 1.1 µM

Question: `CC(C)[C@H](NS(=O)(=O)c1ccc2oc3cc(NS(C)(=O)=O)ccc3c2c1)C(=O)O` was tested. Which IC50 did it give?
Answer: 25 µM
